These are literature values, as cited in patent publication US10801027B2, “Inhibitors of SRSF1 to treat neurodegenerative disorders” (University of Sheffield, priority 2016, dated 2020).

For the series the following is noted: ALS patients; cited from earlier work.

As for `Nc1nc2ccc(OC(F)(F)F)cc2s1` [riluzole], the prolongation of survival result is “approximately 3 months”.
